{"source": "patent US5393772A", "about": "“Use of, and method of treatment using, hydroxycarbazole compounds for inhibition of smooth muscle migration and proliferation” (Boehringer Mannheim Pharmaceuticals Corporation, priority 1993, dated 1995)", "origin": "cited, not measured here", "key": {"smooth muscle": {"system": "smooth muscle", "details": "copending application Ser. No. 08/026892; cited from earlier work"}, "[1]": {"details": "without concomitant reflex changes in heart rate; cited from earlier work"}, "[2]": {"system": "acute myocardial infarction", "details": "canine; cited from earlier work"}, "α1-adrenoceptor": {"system": "α1-adrenoceptor", "details": "cited from earlier work"}, "β-adrenoceptor": {"system": "β-adrenoceptor", "details": "cited from earlier work"}, "[3]": {"system": "acute myocardial infarction", "details": "porcine; cited from earlier work"}, "[4]": {"system": "acute myocardial infarction", "details": "rat; cited from earlier work"}, "calcium channel": {"system": "calcium channel", "details": "at higher concentrations; cited from earlier work"}}, "note": "Read-outs that look alike come from different tables or passages of the source."}
{"smiles": "COc1ccccc1OCCNCC(O)COc1cccc2[nH]c3ccccc3c12", "note": "(centres unmarked) [Carvedilol, 1-(carbazol-4-yloxy-3-[[2-(o-methoxyphenoxy)ethyl]amino]-2-propanol)]", "values": [{"measurement": "smooth muscle migration and proliferation", "setting": "smooth muscle", "result": "inhibiting of smooth muscle migration and proliferation"}, {"measurement": "total peripheral vascular resistance", "setting": "[1]", "result": "decreasing total peripheral vascular resistance without causing the concomitant reflex changes in heart rate"}, {"measurement": "infarct size", "setting": "[2]", "result": "markedly reduces infarct size"}, {"measurement": "vasodilatory action from α1-adrenoceptor blockade", "setting": "α1-adrenoceptor", "result": "result primarily from α1 -adrenoceptor blockade"}, {"measurement": "β-adrenoceptor antagonism", "setting": "β-adrenoceptor", "result": "competitive β-adrenoceptor antagonist"}, {"measurement": "infarct size", "setting": "[3]", "result": "markedly reduces infarct size"}, {"measurement": "infarct size", "setting": "[4]", "result": "markedly reduces infarct size"}, {"measurement": "calcium channel antagonism", "setting": "calcium channel", "result": "calcium channel antagonist at higher concentrations"}]}
